## Yeast mating assay B: variants of the scFv Ab-14

Data: MIT Lincoln Laboratory AlphaSeq set, Li et al. 2023, doi:10.1038/s41467-023-39022-2, as distributed in FLAb.

Binding partner: SARS-CoV-2 spike HR2 peptide, sequence PDVDLGDISGINAS.

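Designed CDR sequences, proposed from the first random library and measured here. Group labels follow the data file (Ctrl: baseline library sampled from a position-specific scoring matrix, with some repeated check sequences; Rand: our label for a block that the file lists under HC and that is probably the random mutants of the ten best first-round binders; En: ensemble of fine-tuned language models; GP: Gaussian process model; GPLM: also part of the Gaussian process libraries; HC: hill climbing; Gen: genetic algorithm; Gibbs: Gibbs sampling; a sequence that several methods proposed may carry one label only). Affinity was read by AlphaSeq, a pooled yeast mating assay with surface-displayed partners. Mating (16 h, 30 °C) was followed by selection of diploids and sequencing of their barcodes. Each replicate has its own calibration line, from reference interactions of the BCL2 family. Each pool was mated in six replicate cultures.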

The variants keep the heavy chain, the linker and the frameworks of Ab-14 (scFv order VH, a (GGGGS)3 linker, VL).
VH: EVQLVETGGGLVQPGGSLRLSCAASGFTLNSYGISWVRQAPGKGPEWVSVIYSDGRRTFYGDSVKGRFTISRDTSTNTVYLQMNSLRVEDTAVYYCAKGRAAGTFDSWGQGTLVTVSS
VL: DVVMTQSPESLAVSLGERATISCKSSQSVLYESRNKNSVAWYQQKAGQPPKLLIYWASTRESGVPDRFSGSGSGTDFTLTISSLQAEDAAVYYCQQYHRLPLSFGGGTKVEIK

The parent's light chain CDRs are KSSQSVLYESRNKNSVA, WASTRES, QQYHRLPLS; each variant's own CDRs replace them letter for letter. Each Kd is an estimate from the mating assay, the geometric mean of the replicates in which the pair was seen; lower is stronger. A pair that was not seen in any replicate is written "no signal"; this usually means weak binding, but a binder can also be missed. The parent sequence was in this pool as ten entries: three were never detected, three once, and four in most replicates, with averages from 2.2 nM to 240 nM.

CDR-L1,CDR-L2,CDR-L3,group,Kd,replicates with signal
KLGMWTYGPTEAKYNVA,EDEMRWH,QQYDRLPLI,En_Gibbs,no signal,0 of 6
KLSQSWLYESRNKNNVA,NASQRED,QQYHRLPLS,GP_Gen,2.6 nM,6 of 6
KSSQTVLYESRNKNSVA,WASTRES,QQQHRLPLS,Ctrl,no signal,0 of 6
KSSQSMLYESRHKNSVA,WASTRES,QQYHRWPII,Ctrl,no signal,0 of 6
KLSGLMASSKFAKDNVA,ENNTREY,QQYDRLPLS,En_Gen,200 nM,3 of 6
KHEEGVWYESRNKNSVA,EGSTRES,QQYHRLPLS,GP_Gibbs,1.3 nM,6 of 6
KSSQSVAYESRNKNSVA,WASTRES,QQYHGLPLS,Ctrl,no signal,0 of 6
TVSQVHGMLSHDKNSVA,DMNTRGS,QQYDRLPLS,En_HC,32 nM,6 of 6
HMSALTMMGMRQRNSVA,QMTTREN,QQYDRLPLA,En_Gen,22 nM,6 of 6
QMYPFGNAKGEGRNNVA,HVSTRAL,QQYFRLPLV,En_Gibbs,5.2 nM,6 of 6
IVSQLMLWGKSAKNSIA,EAQTRLN,QQYDRLPLF,En_Gen,97 nM,6 of 6
TISYSALMTGLNRNSVA,QAEERLD,QQYHRLPLS,En_HC,2.8 nM,6 of 6
KSSQSGLYESRNKNSVA,GASTRES,QWYHRLPLS,Ctrl,4.0 nM,6 of 6
KISQLVLYEDRNKNSVA,NANTRES,QQYHRLPLS,GP_Gibbs,520 pM,6 of 6
KLSQMVGYESRNKSRVA,DNSTRES,QQYDRLPLS,En_HC,55 nM,2 of 6
KVSPSYLLESRNKNSVA,EASTRES,QQYHRLPLS,GP_HC,390 pM,6 of 6
KSSWSYLYESRNKNSVA,AASTRES,QQYHRLPLS,GP_HC,6.9 nM,6 of 6
KLSQSWLYESRNKNSVA,NASQRMS,QQYHRLPLS,GP_Gen,570 pM,6 of 6
KVMQSMLYESRNQNSVA,HASTREQ,QQYHRLPLQ,GP_Gibbs,1.3 nM,6 of 6
KSSISVLKESNNKNSVA,NASTRES,QQWHILPLS,Ctrl,no signal,0 of 6
LISGVWDYGSRNYNSVA,QTSTREQ,QQYDRLPLE,En_HC,15 nM,6 of 6
KSLQSVVYESRNKNSVA,HASTRED,QQYHRLPLS,GP_HC,2.2 nM,6 of 6
KLSQSVEYQSRDKNAVA,SAQTRES,QQYHRLPLS,GP_Gibbs,1.2 nM,6 of 6
KLREVQHVETKQRNNVA,DNDTREY,QDYYRLPLS,En_HC,580 nM,5 of 6
KVSQSWLYESRNKNSVA,EASTRQS,QQYHRLPLS,GP_HC,450 pM,6 of 6
KLSQSVLGGDRNKNSVA,HASTRES,QQYHRLPLY,GP_Gibbs,1.7 nM,6 of 6
KLQMSEGYESRNKNSVA,MASTRCD,QQYHRLPLS,GP_Gibbs,940 pM,6 of 6
KSGIGVLYESRNKNSVA,GASTRES,QQYHRLPLS,GPLM_HC,540 pM,6 of 6
MVSQLMLWGHLAKNSIA,EAQTRLN,QQYDRLPLF,En_Gen,17 nM,1 of 6
KLVQSELYESRNKNSVA,NASTRES,QQYHRLPLS,GP_Gen,2.1 nM,6 of 6
QLSMITGHQSMIKNNVA,EMETREN,QQYDRLPLS,En_Gen,3.9 nM,6 of 6
KLQNSMLYESRNVNSVA,DASKRES,QAYHRLPLS,GP_Gibbs,4.4 nM,6 of 6
KFSQSDLYESRNKNSVA,DASQRES,QQYHRLPLS,GP_Gen,330 pM,6 of 6
SLGMVTMLEYAGRNSVA,NNSTREK,QQYDRLPLS,En_Gen,880 nM,3 of 6
KISGLSNHQSSVHNNVA,ENVTRVQ,QQYFRLPLS,En_Gen,3.6 nM,6 of 6

The remaining entries, values ahead:

Kd,replicates with signal,CDR-L1,CDR-L2,CDR-L3,group
860 pM,6 of 6,KLMQSVLYESRNKNSVA,NASQREQ,QQYHRLPLS,GP_Gen
260 pM,6 of 6,KTGQGVLYESRNKNSVA,GASERES,QQYHRLPLS,GP_HC
620 pM,6 of 6,KLYQSDLYESRNKNSVA,NASTRES,QQYHRLPLS,GP_Gen
24 nM,6 of 6,KISGMSNHQSSVSNNVA,ENVTRVN,QQYFRLPLA,En_Gen
750 pM,6 of 6,KLSQSDLYESRNKNSVA,NASTREQ,QQYHRLPLS,GP_Gen
2.3 nM,6 of 6,KLLQNVMTEGRNRNNVA,HMTMRED,QQYWRLPLS,En_HC
1.3 nM,6 of 6,NIYQAMHTLSQMKENVA,DVNERGD,QQYFRLPLS,En_Gen
3.2 nM,2 of 6,MMSMGYLGGMRAKNNVA,QESTREN,QQYHRLPLI,En_HC
49 nM,6 of 6,KVSQGVWYESRNKNSVA,WASTREV,QQYHRLPLS,GP_Gibbs
1.0 nM,6 of 6,TLGDVTRMESNKKNSIA,DMSNRAD,QQYHRLPIS,En_HC
7.0 nM,6 of 6,KSSQSVLYESRNKNSVA,GASTRES,QQYHVLPLS,Ctrl
490 pM,6 of 6,KLSQSELYESRNKNSVA,NASQRYS,QQYHRLPLS,GP_Gen
1.4 nM,6 of 6,KLSQSRLYESRNKNSVA,HASLRLS,QCYHRLPLS,GP_Gibbs
28 nM,6 of 6,IVSQLMLWGLHAKNSIA,EAETRLN,QQYDRLPLF,En_Gen
670 pM,6 of 6,KLDQSVLYESRNKNSVA,QASTRES,QQYHRLPLS,GP_Gen
21 nM,6 of 6,KISMTYRYESVASNSIA,EMTTRAE,QSYHRLPLS,En_HC
no signal,0 of 6,QLPFYRGDGYLQKNNVA,EGTESSH,QQYMRLPLT,En_Gibbs
1.6 nM,6 of 6,KLSQSVEQLSRNKNSVA,HASQREV,QAYHRLPLS,GP_Gibbs
no signal,0 of 6,IVSQLMLWGMHLKNSIA,EAVTRLN,QQYERLPLF,En_Gen
610 pM,6 of 6,KLPQSGLYESRNKNSVA,NASTRES,QQYHRLPLS,GP_Gen
1.5 nM,6 of 6,KLMQSVMGWMRNKNSVA,NASTRES,QQYHRLPLS,GP_Gibbs
20 nM,4 of 6,MISMNIYGAYRARDNVA,HASNREN,QCYDRLPLS,En_Gen
290 nM,1 of 6,KVSEFMKGLMMRTDSIA,DNTTRNS,QQYDRLPLS,En_Gen
1.1 nM,6 of 6,KLSQSVLYESRNKNSVA,EASTRSS,QQYHRLPLS,GP_Gen
51 nM,5 of 6,KLSDNQELQYNKGQSVA,EASEVCI,QQFYRLPLV,En_Gibbs
2.8 nM,6 of 6,KLMQSMLYESRNTNSVA,HASHRES,QQYHRLPLS,GP_Gibbs
4.5 nM,6 of 6,FIEGFGEDSARNSKNIA,SKELRQV,QQYDRLPLS,En_Gibbs
2.0 nM,6 of 6,KLRQSTLYESRNKNSVA,YASTRES,QQYHRLPLS,GP_HC
9.6 nM,6 of 6,KSSISYLYESRNKNSVA,EASTRES,QQYHRHPTS,Rand
1.8 nM,6 of 6,KLSQSELYESRNSNSVA,NASQRES,QQYHRLPLS,GP_Gen
no signal,0 of 6,KSDQSVLYESRNKNSVA,WASTRES,QQYHRLPSS,Ctrl
38 nM,6 of 6,HVSESIFAQSKMRNSVA,ENSTRES,QQYDRLPLS,En_HC
29 nM,6 of 6,MISQLINMGSFAINSVA,QASTRCN,QQYDRLPLM,En_Gen
790 pM,6 of 6,KFSQQVLYESRAMNSVA,NASQRLS,QQYHRLPLS,GP_Gibbs
830 pM,6 of 6,NLMQVGGYESNVHNSIA,DLRTRES,QQYHRLPLS,En_HC

A sequence measured in both rounds can read differently, since the two assays cover different ranges. The authors averaged sequences with at least three values out of six and counted those with two or fewer as poor binders. Background: pairings of all light chain designs with three empty control strains gave a value in 4% of cases (median 430 nM, 5th percentile 38 nM). Values in that range, when seen in few replicates, are hard to tell from nonspecific mating.